Source: patent US10716795B2, “Steroid analogues for neuroprotection” (Emory University, priority 2008, dated 2020)

Target: T1, classical progesterone receptor (PR) (Homo sapiens, UniProt P06401)
T1 sequence (P06401 1-933): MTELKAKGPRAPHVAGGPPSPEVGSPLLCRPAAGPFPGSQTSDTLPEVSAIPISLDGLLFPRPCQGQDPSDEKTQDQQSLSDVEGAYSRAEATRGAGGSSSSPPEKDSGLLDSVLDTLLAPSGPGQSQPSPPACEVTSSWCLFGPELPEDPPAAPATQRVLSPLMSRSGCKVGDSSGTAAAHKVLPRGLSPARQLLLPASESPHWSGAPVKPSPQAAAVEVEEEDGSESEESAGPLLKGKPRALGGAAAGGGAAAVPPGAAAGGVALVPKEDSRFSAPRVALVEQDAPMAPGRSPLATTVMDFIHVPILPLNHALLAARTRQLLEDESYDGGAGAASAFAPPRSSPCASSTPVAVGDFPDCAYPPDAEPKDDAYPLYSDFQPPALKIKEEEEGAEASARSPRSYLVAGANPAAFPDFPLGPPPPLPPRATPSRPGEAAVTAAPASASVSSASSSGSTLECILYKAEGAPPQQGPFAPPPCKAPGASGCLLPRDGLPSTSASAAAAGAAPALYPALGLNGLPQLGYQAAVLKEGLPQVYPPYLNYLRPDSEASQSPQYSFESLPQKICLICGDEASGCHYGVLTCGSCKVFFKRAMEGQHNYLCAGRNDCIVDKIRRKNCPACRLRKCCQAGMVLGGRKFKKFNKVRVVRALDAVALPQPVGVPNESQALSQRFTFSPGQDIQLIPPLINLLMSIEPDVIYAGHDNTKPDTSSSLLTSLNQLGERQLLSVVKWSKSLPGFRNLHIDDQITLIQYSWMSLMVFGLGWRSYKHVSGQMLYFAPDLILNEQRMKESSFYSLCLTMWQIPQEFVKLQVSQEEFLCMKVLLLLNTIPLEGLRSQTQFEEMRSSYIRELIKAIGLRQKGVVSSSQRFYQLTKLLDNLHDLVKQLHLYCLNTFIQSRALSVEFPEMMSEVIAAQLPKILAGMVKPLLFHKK
Test: binding to the classical progesterone receptor

CC(=O)[C@@H]1CCC2C3CCC4=CC(=O)CC[C@@]4(C)C3CC[C@]21C (stereo partly drawn) [ent-PROG, ent-Progesterone]
affinity for progesterone receptor: moderate affinity
